Laboratory results published in patent publication EP1061897B1, “GLYCYLGLYCINE OLEAMIDE IN DERMO-COSMETOLOGY” (Pierre Fabre Dermo-Cosmetique, priority 1998, dated 1999).

Tested on: élastase
Assay: in vitro acellular anti-elastase test, elastase diffusion in agarose gel containing orcein-stained insoluble elastin
Format: biochemical
Conditions: figure 2
Excerpt: La méthode utilisée est une technique in vitro acellulaire, basée sur la diffusion d'élastase dans un gel d'agarose contenant de l'élastine insoluble colorée par l'orcéïne et dispersée dans le gel avec ou sans principe actif. La lecture du diamètre de lyse permet de calculer le pourcentage d'inhibition de l'enzyme par le principe actif.

SMILES: CCCCCCCC/C=C\CCCCCCCC(=O)O [acide oléïque, acide oléique]
- activité anti-élastase (aire de lyse): celle-ci est apportée par l'acide oléïque
